Results: patent publication US12110276B2 (Genentech, Inc., priority 2021, dated 2024)

By UniProt entry, the sequences of proteins in these tests, tags left out.
UniProt Q15562, whole entry, species assumed: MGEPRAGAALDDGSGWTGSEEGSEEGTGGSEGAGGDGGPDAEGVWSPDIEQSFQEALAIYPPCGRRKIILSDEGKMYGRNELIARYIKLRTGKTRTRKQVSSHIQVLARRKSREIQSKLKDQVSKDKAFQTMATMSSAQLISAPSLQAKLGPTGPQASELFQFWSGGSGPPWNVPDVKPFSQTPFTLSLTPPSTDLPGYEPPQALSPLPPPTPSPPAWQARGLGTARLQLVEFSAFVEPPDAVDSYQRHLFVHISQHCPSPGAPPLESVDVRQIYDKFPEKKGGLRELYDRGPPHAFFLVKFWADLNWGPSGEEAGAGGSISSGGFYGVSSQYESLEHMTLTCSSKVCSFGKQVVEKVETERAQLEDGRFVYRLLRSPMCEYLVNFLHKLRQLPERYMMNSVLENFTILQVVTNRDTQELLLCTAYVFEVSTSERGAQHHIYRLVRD
UniProt P28347, whole entry, species assumed: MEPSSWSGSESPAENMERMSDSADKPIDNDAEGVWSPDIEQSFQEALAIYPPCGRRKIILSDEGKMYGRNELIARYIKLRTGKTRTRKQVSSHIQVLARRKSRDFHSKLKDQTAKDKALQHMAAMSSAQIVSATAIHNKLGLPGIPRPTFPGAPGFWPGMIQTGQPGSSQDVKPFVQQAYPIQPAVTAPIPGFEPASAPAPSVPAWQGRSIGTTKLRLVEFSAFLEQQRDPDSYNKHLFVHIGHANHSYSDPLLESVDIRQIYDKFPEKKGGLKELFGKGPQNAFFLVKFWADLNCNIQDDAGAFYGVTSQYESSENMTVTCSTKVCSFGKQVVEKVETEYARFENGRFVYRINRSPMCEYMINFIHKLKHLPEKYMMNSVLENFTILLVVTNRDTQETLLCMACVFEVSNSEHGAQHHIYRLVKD
UniProt Q99594, whole entry, species assumed: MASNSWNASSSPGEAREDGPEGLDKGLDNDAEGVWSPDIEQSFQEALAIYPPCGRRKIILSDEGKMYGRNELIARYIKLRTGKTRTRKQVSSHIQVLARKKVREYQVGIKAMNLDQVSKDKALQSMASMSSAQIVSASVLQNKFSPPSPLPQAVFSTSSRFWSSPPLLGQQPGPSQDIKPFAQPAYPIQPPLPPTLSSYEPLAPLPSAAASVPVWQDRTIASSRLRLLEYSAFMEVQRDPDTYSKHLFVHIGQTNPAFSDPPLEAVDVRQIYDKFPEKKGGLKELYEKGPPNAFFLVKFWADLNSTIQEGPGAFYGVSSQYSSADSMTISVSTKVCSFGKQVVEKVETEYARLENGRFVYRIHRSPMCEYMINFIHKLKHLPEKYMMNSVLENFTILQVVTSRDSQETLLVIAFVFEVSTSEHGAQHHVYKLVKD

Columns and labels:
TEAD2 = TEAD2 (Homo sapiens (Human), UniProt Q15562);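 also: TR-FRET competition assay with His-tagged TEAD protein and a biotinylated lipid pocket probe, compound pre-incubated 30 min or 4 h at room temperature, displacement lowers signal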
TEAD1 = TEAD1 (Homo sapiens (Human), UniProt P28347); assay: TR-FRET lipid pocket probe competition assay (Lipid HTRF), TEAD1; type: binding; conditions: 4 hours pre-incubation;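 also: His-tagged TEAD1 with biotinylated probe, detected via Europium anti-His and XL665 streptavidin, probe displacement lowers TR-FRET signal, IC50 from four-parameter nonlinear fit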
TEAD3 = TEAD3 (Homo sapiens (Human), UniProt Q99594); assay: TR-FRET lipid pocket probe competition assay (Lipid HTRF), TEAD3; type: binding; conditions: 4 hours pre-incubation

pIC50 (TEAD2): 8.10
SMILES: C=C(F)C(=O)N1CC(c2nn(-c3ccc(S(F)(F)(F)(F)F)cc3)c3nccc([C@@H](O)CO)c23)C1 [Compound 60, (R)-1-(3-(4-(1,2-dihydroxyethyl)-1-(4-(pentafluoro-16-sulfanyl)phenyl)-1H-pyrazolo[3,4-b]pyridin-3-yl)azetidin-1-yl)-2-fluoroprop-2-en-1-one]

pIC50 (TEAD1): 6.05
SMILES: C/C=C/C(=O)NCc1nn(-c2ccc(OC(F)(F)F)cc2)c2nccc(CO)c12 [Compound 61, (E)-N-((4-(Hydroxymethyl)-1-(4-(trifluoromethoxy)phenyl)-1H-pyrazolo[3,4-b]pyridin-3-yl)methyl)but-2-enamide]

pIC50 (TEAD3): 8.05
SMILES: C=CC(=O)N1CC(c2nn(-c3ccc(OC(F)(F)F)cc3)c3nccc(CO)c23)C1 [Compound 112, 1-(3-(4-(Hydroxymethyl)-1-(4-(trifluoromethoxy)phenyl)-1H-pyrazolo[3,4-b]pyridin-3-yl)azetidin-1-yl)prop-2-en-1-one]

pIC50: −log10 of the molar value. One block for each compound: values may come before it.
